## Yeast mating assay B: variants of the scFv Ab-14

The measurements come from Li et al. 2023 (doi:10.1038/s41467-023-39022-2) through the FLAb antibody collection.

The target is the same throughout: PDVDLGDISGINAS, from the HR2 region of SARS-CoV-2 spike.

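This is the validation round: designs drawn from the data on random variants, tested in the same kind of assay. Group labels follow the data file (En: ensemble of fine-tuned language models; HC: hill climbing; Gen: genetic algorithm; Gibbs: Gibbs sampling; a sequence that several methods proposed may carry one label only). The scFvs were displayed on barcoded MATa yeast, the peptide on MATalpha yeast. Binding brings cells together so that they mate, and sequencing counts the barcode pairs among the diploids. Read counts were normalised to the haploid input and turned into Kd by a linear fit to BCL2-family pairs of known affinity, for each replicate. The assay was run in six technical replicates.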

Parent scFv Ab-14: VH joined to VL by three GGGGS repeats. Changes lie in the heavy chain CDRs alone.
VH: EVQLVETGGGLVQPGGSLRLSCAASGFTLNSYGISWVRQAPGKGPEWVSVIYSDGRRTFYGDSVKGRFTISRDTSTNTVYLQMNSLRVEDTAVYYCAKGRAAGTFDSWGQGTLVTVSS
VL: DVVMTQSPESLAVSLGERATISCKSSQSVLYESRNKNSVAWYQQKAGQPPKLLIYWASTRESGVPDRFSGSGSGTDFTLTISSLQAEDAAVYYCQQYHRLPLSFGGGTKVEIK

The parent's heavy chain CDRs are GFTLNSYGIS, VIYSDGRRTFYGDSVK, GRAAGTFDS; each variant's own CDRs replace them letter for letter. This list holds designs with more than six substitutions. The Kd shown is the geometric mean over detected replicates; a lower Kd is a better binder. "no signal" marks a missing value. The strain was present, yet no cells mated with the target were sequenced in any replicate, which points to weak or no binding. Three control strains display no target. For all heavy chain designs, 1% of the pairings with them gave a signal, with a median of 120 nM and one signal in twenty below 7.0 nM, so weak values seen in few replicates may be background. For each scFv, signals with the empty controls are counted beside the result.

* GFDLNEYGIS / VIYADGMRTFYTDSVK / GEVAGTFDF [En_HC]: 3.6 nM (6 of 6 replicates; controls 0 of 18)
* GFDLDSYGIS / VIYADGRRSAYHDSVK / GQNGGVSFV [En_Gibbs]: 130 pM (6 of 6 replicates; controls 0 of 18)
* GEDLDEYGIS / VIYADGMRQYYVNNVK / GDINDVDDL [En_Gibbs]: no signal (0 of 6 replicates; controls 0 of 18)
* GFDLEDYGIS / VIYADGRRTAYIDSVK / GEAAGTFDV [En_HC]: 9.4 nM (6 of 6 replicates; controls 0 of 18)
* GFDIQEYGIS / VIYADGQRKAYHQSVK / GAGDITAVV [En_Gibbs]: no signal (0 of 6 replicates; controls 0 of 18)
* GFDLNEYGIS / VIYADGRRTFYKDSVK / GANGGTFDV [En_HC]: 1.9 nM (6 of 6 replicates; controls 0 of 18)
* GFDLNEYGIS / VIYADGVRKAYADSVK / GEVAGTFDI [En_Gen]: 220 nM (5 of 6 replicates; controls 0 of 18)
* GQNLDEYGIS / VIYADGMRKWYADDVK / GIMSAGVII [En_Gibbs]: 11 nM (1 of 6 replicates; controls 0 of 18)
* GFDLDEYGIS / VIYADGQRTAYADNVK / GNVAGTFDV [En_Gen]: 720 pM (6 of 6 replicates; controls 0 of 18)
* GFDLNEMGIS / VIYADGRRVEYNDKVK / GMLTGTFDQ [En_Gibbs]: 580 nM (1 of 6 replicates; controls 1 of 18)
* GFNLDEYGIS / VIYADGRRTFYQDSVK / GEGAGTFDI [En_HC]: 690 pM (6 of 6 replicates; controls 1 of 18)
* GPSLDEFGIS / VIYADGMRTAYTDSVK / GLFAATFVD [En_Gibbs]: no signal (0 of 6 replicates; controls 0 of 18)
* GMDLQEFGIS / VIYADGVREYYKDDFK / GQIAGTFDD [En_Gibbs]: 830 pM (6 of 6 replicates; controls 0 of 18)
* GFDLNEYGIS / VIYADGMRTQYIDSVK / GNAAGTFDM [En_HC]: 1.4 nM (5 of 6 replicates; controls 0 of 18)
* GFDLNEYGIS / VIYADGMRQAVVQNVK / GKINQTDSV [En_Gibbs]: no signal (0 of 6 replicates; controls 0 of 18)
* GFDLDEYGIS / VIYADGMRTAYADSVK / GSNAGTFDQ [En_Gen]: 330 pM (6 of 6 replicates; controls 0 of 18)
* GFDLNEYGIS / VIYADGVRTAYADKVK / GEVAGTFDV [En_Gen]: 290 pM (6 of 6 replicates; controls 0 of 18)
* GFDLNEYGIS / VIYADGVRTVYADSVK / GNVAGTFDI [En_Gen]: 180 pM (6 of 6 replicates; controls 0 of 18)
* GFDLNEYGIS / VIYADGRRTFYSDSVK / GTVAGFFDV [En_HC]: 23 nM (1 of 6 replicates; controls 0 of 18)
* GFDLNEYGIS / VIYADGSRTAYSKNFK / GEDGIVLLF [En_Gibbs]: no signal (0 of 6 replicates; controls 0 of 18)
* GFDLNEYGIS / VIYADGQRTAYADKVK / GNTAGTFDV [En_Gen]: 510 pM (6 of 6 replicates; controls 0 of 18)
* GFDLNEYGIS / VIYADGRRTFYADSVK / GHVAGTFVV [En_HC]: 510 pM (6 of 6 replicates; controls 0 of 18)
* GQDLDEYGVS / VIYADGQRTQYTNDVK / GNYSGAFII [En_Gibbs]: no signal (0 of 6 replicates; controls 0 of 18)
* GFNLDEYGIS / VIYADGMRENYADSVK / DGSWVQQLG [En_Gibbs]: no signal (0 of 6 replicates; controls 0 of 18)
* GFDLNEYGIS / VIYADGMRKYYADSVK / GENAGTFDV [En_Gen]: 250 pM (6 of 6 replicates; controls 0 of 18)
* GFDLNEYGIS / VIYADGMRTYYSDSVK / GNNAGTFDV [En_Gen]: 840 pM (6 of 6 replicates; controls 0 of 18)
* GFDLNEYGIS / VIYADGMRTAYADTVK / GNVAGTFDT [En_Gen]: 4.0 nM (6 of 6 replicates; controls 0 of 18)
* GFDINEYGVS / VIYADGMRTAYRDSVK / GEGKWIVLI [En_Gibbs]: no signal (0 of 6 replicates; controls 0 of 18)
* GFDLDEYGIS / VIYADGKRTAYIDSVK / GNVAGTFDI [En_Gen]: 420 pM (6 of 6 replicates; controls 0 of 18)
* GFDLNEYGIS / VIYADGVRTSYADDVK / GNVAGTFDI [En_Gen]: 630 pM (6 of 6 replicates; controls 0 of 18)
* GFDLDEQGIS / VIYADGQRKAYANAVK / GNQGNIART [En_Gibbs]: no signal (0 of 6 replicates; controls 2 of 18)
* GFDINEYGIS / VIYADGRRTFYTDSVK / GENAGTFDV [En_HC]: 330 pM (6 of 6 replicates; controls 0 of 18)

The opening 4 entries, copied out:

- GFDLNEYGIS / VIYADGMRTFYTDSVK / GEVAGTFDF [En_HC] -> 3.6 nM (6 of 6 replicates; controls 0 of 18)
- GFDLDSYGIS / VIYADGRRSAYHDSVK / GQNGGVSFV [En_Gibbs] -> 130 pM (6 of 6 replicates; controls 0 of 18)
- GEDLDEYGIS / VIYADGMRQYYVNNVK / GDINDVDDL [En_Gibbs] -> no signal (0 of 6 replicates; controls 0 of 18)
- GFDLEDYGIS / VIYADGRRTAYIDSVK / GEAAGTFDV [En_HC] -> 9.4 nM (6 of 6 replicates; controls 0 of 18)

The authors averaged sequences with at least three values out of six and counted those with two or fewer as poor binders. Of ten entries with the parent sequence, four were seen in most replicates (averages 2.2 nM to 240 nM), three in one and three in none, so single entries are noisy. A sequence measured in both rounds can read differently, since the two assays cover different ranges.